Source: patent US8772197B2, “Compositions for chemical and biological defense” (dated 2014)
In brackets after ≈: the same amount, converted by molar mass.

Legend:
[1] = cited from earlier work
[2] = cited from earlier work; remark: listed apart in the source
[3] = Spontaneous hydrolysis of methyl-paraoxon (31P NMR); conditions: for Kinetic constant, Reaction on methoxide / Kinetic constant, Reaction on p-nitrophenol: spontaneous hydrolysis
[4] = Hydrolysis of p-nitrophenyl acetate (UV/Vis, 404 nm)
[5] = Ethyl-paraoxon hydrolysis by hydroxamic acid nucleophiles (UV/Vis)
[6] = Methyl-paraoxon hydrolysis by hydroxamic acid nucleophiles (UV/Vis)

O=C(O)c1ccccc1I(=O)=O
pKa [1]: 2.4
solubility in most organic solvents (except DMSO) ([2]; r.t.): insoluble

COP(=O)(OC)Oc1ccc([N+](=O)[O-])cc1
Kinetic constant, Reaction on methoxide ([3]; pH = 8, 50 mM Tris buffer): 4.2e-07 s⁻¹
Kinetic constant, Reaction on p-nitrophenol ([3]; pH = 8, 50 mM Tris buffer): 1.1e-07 s⁻¹
Kinetic constant, Reaction on methoxide ([3]; pH = 10.6, 50 mM CAPS buffer): 1.4e-06 s⁻¹
Kinetic constant, Reaction on p-nitrophenol ([3]; pH = 10.6, 50 mM CAPS buffer): 9.3e-06 s⁻¹
increase of kinetic constant of reaction on p-nitrophenol groups ([3]; solution pH from 8 to 10.6): 85 times

CC(=O)NO
reactivity difference between AHA and PHA ([4]; hydrolysis of p-nitrophenyl acetate): 4
reactivity difference between AHA and PHA ([5]; hydrolysis of ethyl-paraoxon): 17
Second order kinetic constant of hydrolysis of ethyl-paraoxon ([5]; pH 9): 0.0075 M⁻¹ s⁻¹
reactivity difference between AHA and PHA ([6]; hydrolysis of methyl-paraoxon): 14
Second order kinetic constant of hydrolysis of methyl-paraoxon ([6]; pH 9): 0.025 M⁻¹ s⁻¹

N/C(C/C(N)=N/O)=N\O
second-order kinetic constant kcat of PNPA hydrolysis ([4]; pH 8, 50 mM Tris, 25° C., based on molar amidoxime concentration, [PNPA]0=0.25 mM particles, 0.05 mM malonohydroxamamide): 0.046 M⁻¹ s⁻¹

CCOP(=S)(OCC)Oc1ncc(Cl)c(Cl)c1Cl
solubility in water [2]: 2 µg/mL (≈ 5.7 µM)
